Among the data in US20240150396A1 (The Texas A&M University System, priority 2021, published 2024) are Ki values, retold here.

Protein sequences, listed by entry. Tags and fused reporters are not part of them. Residues count along the entry.
UniProt P07711, 114-333 limits assumed: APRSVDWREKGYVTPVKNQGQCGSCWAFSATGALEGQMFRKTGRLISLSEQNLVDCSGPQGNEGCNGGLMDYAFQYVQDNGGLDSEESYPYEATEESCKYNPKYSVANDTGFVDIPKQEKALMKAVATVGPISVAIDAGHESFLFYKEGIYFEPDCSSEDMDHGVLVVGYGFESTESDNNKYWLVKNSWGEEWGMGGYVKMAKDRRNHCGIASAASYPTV

In this experiment the target is human cathepsin L (Homo sapiens (Human), UniProt P07711). Kind of experiment: Human cathepsin L inhibition, Z-FR-AMC assay. The settings on record: read-out: Ki* hCatL; pH 5.5, 25° C. Type of experiment: biochemical.

Regarding `CC(C)[C@H](NC(=O)OCc1ccccc1)C(=O)N[C@@H](CC1CCCCC1)C(=O)N[C@H](C=O)Cc1ccc[nH]c1=O`, the Ki (commonly the dissociation constant of the complex between target and ligand, obtained from inhibition or displacement) worked out at 50 nM.
